Measured values published in patent publication US9708315B2, “1,2,4-triazolo[4,3-a]pyridine compounds and their use as positive allosteric modulators of MGLUR2 receptors” (Janssen Pharmaceutica NV, priority 2013, dated 2017).
Read-outs that look alike come from different tables or passages of the source.

Sequences of proteins named here, by UniProt entry; tags and fusion partners are left off. Residues count along the entry.
UniProt Q14416, 19-872: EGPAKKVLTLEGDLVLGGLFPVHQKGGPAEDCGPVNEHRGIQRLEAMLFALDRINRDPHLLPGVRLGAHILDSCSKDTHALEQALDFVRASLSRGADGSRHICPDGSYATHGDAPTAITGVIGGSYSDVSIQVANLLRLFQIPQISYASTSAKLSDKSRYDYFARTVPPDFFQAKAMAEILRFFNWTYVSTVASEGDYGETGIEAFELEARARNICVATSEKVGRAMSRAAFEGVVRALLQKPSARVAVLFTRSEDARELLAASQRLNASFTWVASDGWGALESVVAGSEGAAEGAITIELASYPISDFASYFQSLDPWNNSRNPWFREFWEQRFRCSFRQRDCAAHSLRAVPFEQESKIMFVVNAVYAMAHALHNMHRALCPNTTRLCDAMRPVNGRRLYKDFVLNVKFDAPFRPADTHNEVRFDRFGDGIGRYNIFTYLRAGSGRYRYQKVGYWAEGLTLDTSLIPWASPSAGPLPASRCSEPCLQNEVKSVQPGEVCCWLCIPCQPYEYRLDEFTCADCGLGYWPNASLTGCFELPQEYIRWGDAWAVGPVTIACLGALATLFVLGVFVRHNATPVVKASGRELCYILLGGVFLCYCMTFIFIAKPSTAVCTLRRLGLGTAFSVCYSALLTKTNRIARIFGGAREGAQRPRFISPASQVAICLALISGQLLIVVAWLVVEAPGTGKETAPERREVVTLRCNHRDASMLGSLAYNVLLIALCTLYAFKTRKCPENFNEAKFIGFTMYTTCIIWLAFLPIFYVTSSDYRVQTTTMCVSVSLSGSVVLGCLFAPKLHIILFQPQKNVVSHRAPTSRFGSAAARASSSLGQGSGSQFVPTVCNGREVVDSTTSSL

Biological target: T1, human mGlu2 receptor (Homo sapiens, UniProt Q14416)
T1 construct: expressed in transfected cells; host or cells: CHO cells
Test: [35S]GTPγS binding assay, mGluR2 PAM
Assay type: biochemical
Details: for EC50: EC50 expressed in M; for Emax: read-out: GTPγS - hmGluR2 PAM Emax, maximal % effect relative to the control glutamate response
Experimental: [^35S]GTPγS Binding Assay
The [^35S]GTPγS binding assay is a functional membrane-based assay used to study G-protein coupled receptor (GPCR) function whereby incorporation of a non-hydrolysable form of GTP, [^35S]GTPγS (guanosine 5′-triphosphate, labelled with […] ^35S), is measured.
Cells were then collected by scraping in PBS and cell suspension was centrifuged (10 min at 4000 RPM in benchtop centrifuge). Supernatant was discarded and pellet gently resuspended in 50 mM Tris-HCl, pH 7.4 by mixing with a vortex and pipetting up and down. The suspension was centrifuged at 16,000 RPM (Sorvall RC-5C plus rotor SS-34) for 10 minutes and the supernatant discarded. The pellet was homogenized in 5 mM Tris-HCl, pH 7.4 using an ultra-turrax homogenizer and centrifuged again (18,000 RPM, 20 min, 4° C.). The final pellet was resuspended in 50 mM Tris-HCl, pH 7.4 and stored at −80° C. in appropriate aliquots before use. Protein concentration was determined by the Bradford method (Bio-Rad, USA) with bovine serum albumin as standard.
Measurement of mGluR2 positive allosteric modulatory activity of test compounds was performed as follows. Test compounds and glutamate were diluted in assay buffer containing 10 mM HEPES acid, 10 mM HEPES salt, pH 7.4, 100 mM NaCl, 3 mM MgCl2 and 10 μM GDP. Human mGlu2 receptor-containing membranes were thawed on ice and diluted in assay buffer supplemented with 14 μg/ml saponin. Membranes were pre-incubated with compound alone or together with a predefined (˜EC20) concentration of glutamate (PAM assay) for 30 min at 30° C. After addition of [^35S]GTPγS (f c. 0.1 nM), assay mixtures were shaken briefly and further incubated to allow [^35S]GTPγS incorporation on activation (30 minutes, 30° C.). Final assay mixtures contained 7 μg of membrane protein in 10 mM HEPES acid, 10 mM HEPES salt, pH 7.4, 100 mM NaCl, 3 mM MgCl2, 10 μM GDP and 2 μg/ml saponin. […] Filters were washed 6 times with ice-cold 10 mM NaH2PO4/10 mM Na2HPO4, pH 7.4. Filters were then air-dried, and 40 μl of liquid scintillation cocktail (Microscint-O) was added to each well. Membrane-bound radioactivity was counted in a Microplate Scintillation and Luminescence Counter from Perkin Elmer.
The concentration-response curves of representative compounds of the present invention—obtained in the presence of EC20 of mGluR2 agonist glutamate to determine positive allosteric modulation (PAM)—were generated using the Lexis software interface (developed at J&J). Data were calculated as % of the control glutamate response, defined as the maximal response that is generated upon addition of glutamate alone. Sigmoid concentration-response curves plotting these percentages versus the log concentration of the test compound were analyzed using non-linear regression analysis. The concentration producing half-maximal effect is then calculated as EC50.
The pEC50 values below were calculated as the −log EC50, when the EC50 is expressed in M. Emax is defined as relative maximal effect (i.e. maximal % effect relative to the control glutamate response).
All compounds were tested in presence of mGluR2 agonist glutamate at a predetermined EC20 concentration, to determine positive allosteric modulation. pEC50 values were calculated from a concentration-response experiment of at least 8 concentrations.

[1] = in presence of glutamate at EC20, read-out: GTPγS - hmGluR2 PAM pEC50 (converted)
[2] = GTPγS - hmGluR2 PAM pEC50, in presence of glutamate at EC20

Row | EC50 [1] [nM] | Emax (glutamate at EC20) [%] | EC50 [2] [nM] | Structure (SMILES) | also measured
1 | 166 | 214 | – | CCc1nnc2c(C(F)(F)F)c(C(C)Oc3ccc(F)cc3F)ccn12 (single isomer, unassigned) [Compound 26, 7-[(1*R)-1-(2,4-Difluorophenoxy)ethyl]-3-ethyl-8-(trifluoromethyl)[1,2,4]triazolo[4,3-a]pyridine] | –
2 | – | – | – | CCc1nnc2c(C(F)(F)F)c(C(C)Oc3ccc(F)cc3F)ccn12 (single isomer, unassigned) [Compound 27, 7-[(1*S)-1-(2,4-Difluorophenoxy)ethyl]-3-ethyl-8-(trifluoromethyl)[1,2,4]triazolo[4,3-a]pyridine] | GTPγS - hmGluR2 PAM Emax (maximal % effect relative to the control glutamate response, glutamate at EC20): 51%
3 | – | – | 64.6 | CCc1nnc2c(C(F)(F)F)c(C(C)Oc3c(F)cc(F)cc3F)ccn12 (single isomer, unassigned) [Compound 28, 3-Ethyl-8-(trifluoromethyl)-7-[(1*R)-1-(2,4,6-trifluorophenoxy)ethyl]-[1,2,4]triazolo[4,3-a]pyridine] | –
4 | – | – | 1410 | CCc1nnc2c(C(F)(F)F)c(C(C)Oc3c(F)cc(F)cc3F)ccn12 (single isomer, unassigned) [Compound 29, 3-Ethyl-8-(trifluoromethyl)-7-[(1*S)-1-(2,4,6-trifluorophenoxy)ethyl]-[1,2,4]triazolo[4,3-a]pyridine] | –
5 | 380 | – | – | CCc1nnc2c(C(F)(F)F)c(C(C)Oc3ccc(F)cc3F)ccn12 (centres unmarked) [Compound 24, 7-[1-(2,4-Difluorophenoxy)ethyl]-3-ethyl-8-(trifluoromethyl)[1,2,4]triazolo[4,3-a]pyridine] | –
6 | – | 233 | 126 | CCc1nnc2c(C(F)(F)F)c(C(C)Oc3c(F)cc(F)cc3F)ccn12 (centres unmarked) [Compound 25, 3-Ethyl-8-(trifluoromethyl)-7-[1-(2,4,6-trifluorophenoxy)ethyl][1,2,4]triazolo[4,3-a]pyridine] | –
